High-throughput results from PubChem.
Sampled rows, rich in hits. Any-hit rate of the full collection: about 16%.
uPA surface inh – cell surface uPA generation inhibition; cell surface uPA generation assay, qHTS; Potency, µM (highest dose often 38.3 µM), for inactives: top-dose activity change, negative = inhibition, actives largely listed as inhibitors; hit rate 0.31% among 330,000; active = well fitted inhibition curve with a large enough effect; inconclusive = small, poorly fitted or top-dose-only effect; inactive = no such curve, though single readings can be large or run the other way; tested in mouse RAW 264.7 cells; note: potency is the fitted concentration of half-maximal effect; % is set by controls: 0 for no effect and ±100 for the full control effect; nearly all actives have a fitted effect of over 55% in size
TDP1 block – TDP1 (human) enzyme inhibition; Q9NUW8; recombinant TDP1, AlphaScreen DNA substrate cleavage; Potency, µM (titrated, usually from 130 µM), without a hit: at the highest dose activity change, negative = inhibition, usual class: inhibitors; hit rate 0.28% among 350,000; AID 485290; note: potency is the fitted concentration of half-maximal effect; % is set by controls: 0 for no effect and ±100 for the full control effect; nearly all actives have a fitted effect of over 40% in size
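Here, a 5' biotin and 3' phosphotyrosine-FITC DNA oligonucleotide reports Tdp1 activity: intact substrate bridges AlphaScreen beads, while cleavage leaves a 3' phosphate and drops signal. All incubations at room temperature.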
DT40 TDP1 no CPT – qHTS for Inhibitors of human tyrosyl-DNA phosphodiesterase 1 (TDP1): qHTS in cells in absence of CPT; DT40 Tdp1-/- hTDP1 cells, no CPT, ATP luminescence, 48 h; Potency, µM (top dose mostly 46.2 µM), inactives show top-dose activity change, negative = growth inhibition, most hits filed as inhibitors; hit rate 15% among 420,000; note: potency is the fitted concentration of half-maximal effect; % is set by controls: 0 for no effect and ±100 for the full control effect; nearly all actives have a fitted effect of over 55% in size
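Camptothecin absent (DMSO only). Human TDP1-complemented DT40 knockout cells, 400 cells/well, 37 °C for minimum 48 hr; ATP measured via CellTiter-Glo, 30 min dark incubation, luminescence.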
DT40 TDP1 CPT – growth inhibition of DT40 Tdp1-/-;hTDP1 cells with camptothecin (screen for TDP1 inhibitors); hit rate 12% among 420,000; AID 686979; Potency, µM (highest dose often 46.2 µM), without a hit: top-dose activity change, negative = growth inhibition, usual class: inhibitors; chicken DT40 Tdp1-/-;hTDP1 cells + 20 nM CPT, ATP luminescence, 48 h; note: potency is the fitted concentration of half-maximal effect; % is set by controls: 0 for no effect and ±100 for the full control effect; nearly all actives have a fitted effect of over 55% in size
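Chicken DT40 Tdp1-/- cells stably complemented with human TDP1 were seeded at 400 cells/well in medium containing 20 nM camptothecin, exposed to pin-transferred compounds, and grown at 37 °C for at least 48 hr. Viability was read as ATP luminescence.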
miR-21 FLuc – raises the signal of a miR-21 reporter | HeLa miR-21 FLuc reporter, luciferase, 48 h | Potency, µM (doses to about 38.3 µM), without a hit: at the top dose reporter change, positive = more light | 340,000 tested, under 10 active | AID 2288; active = well fitted rising curve with a large enough effect; inconclusive = small, poorly fitted or top-dose-only effect; inactive = no such curve, though single readings can be large or run the other way;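 note: % of control where 0% means no effect; miR-21 action dims this reporter so a rising signal means less miR-21 action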
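Luminescence from a firefly luciferase reporter carrying a miR-21 binding site downstream, stably expressed under a CMV promoter in HeLa cells that make miR-21 endogenously, reports miRNA modulation after 48 h compound exposure up to approximately 40uM final.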
* hit, by the source's call; u = inconclusive; x = no result given; [ ] = dose if it differs, or a comment. Unless noted, calls come from the whole dose curve; as a rule, active = well fitted curve in the direction sought with a large enough effect; inconclusive = small, poorly fitted or top-dose-only effect, or another doubt; inactive = no such curve, though single readings can be large; an effect the other way counts as inactive or inconclusive.

SMILES	miR-21 FLuc	uPA surface inh	DT40 TDP1 no CPT	DT40 TDP1 CPT	TDP1 block
CCn1c(NCc2cc(Br)ccc2NS(=O)(=O)c2ccc(C)cc2)nc2ccccc21	23%	-12%	u	u	8%
C=CCOc1ccc(C2OC34CCCCC3C(C#N)(C#N)C2(C#N)C(=N)O4)cc1 (stereo not given)	-1%	1%	6.5µM*	13µM*	0%
Cc1ccc(C2OC34CCCCCC3C(C#N)(C(=N)O4)C2(C#N)C#N)cc1 (stereo not given)	-9%	-10%	u	-26%	6%
CCOc1ccc(C2OC34CCCCC3C(C#N)(C#N)C2(C#N)C(=N)O4)cc1OC (stereo not given)	-2%	0%	16µM*	13µM*	-5%
CCCCOc1ccc(C2OC34CCCCC3C(C#N)(C#N)C2(C#N)C(=N)O4)cc1 (stereo not given)	-2%	3%	-3%	-7%	5%
CCN(CC)C(=O)c1ccc(S(=O)(=O)N2CCC(c3nc4ccccc4s3)CC2)cc1	-7%	-3%	10µM*	7.3µM*	2%
O=S(=O)(c1ccc(OC(F)(F)F)cc1)N1CCC(c2nc3ccccc3s2)CC1	5%	x	23%	11%	0%
CC1CCCN(C(=O)c2ccc(S(=O)(=O)N3CCC(c4nc5ccccc5s4)CC3)cc2)C1 (stereo not given)	x	-3%	6.5µM*	12µM*	x
O=S(=O)(c1ccccc1)N1CCCC1c1nc2ccccc2s1 (stereo not given)	19%	-2%	18µM*	u	2%
COCCn1c(C)cc(O)c(C(c2ccccc2Cl)N2CCCCC2)c1=O (stereo not given)	-2%	x	2%	0%	0%
O=C(Nc1c(C(=O)N2CCN(c3ccccn3)CC2)oc2ccccc12)c1cccc([N+](=O)[O-])c1	-6%	1%	u	u	7%
CCN(Cc1ccccc1)CC(O)COC(c1ccc(OC)cc1)c1ccc(OC)cc1 (stereo not given)	3%	-2%	21µM*	21µM*	x
CCOC(=O)c1ccc(NC(=S)N(CCN(C)C)Cc2cccs2)cc1	21%	-3%	u	16µM*	0%
CO[C@H]1[C@H](NC(=O)c2ccsc2)c2ccccc2C12CCN(Cc1cccn1-c1ccccn1)CC2	x	x	-26%	10%[9.04 µM]	x
CC(C)n1c(CNC(=O)c2ccccc2F)nnc1SCC(=O)c1ccc(F)cc1	x	7%	-20%	6%	x
c1ccc2c(c1)oc1c(-c3cccc4nccn34)cccc12	x	x	u	13µM*	x
CCOc1ccc(-c2nnc(NC(=O)c3ccc(OCC(C)C)c(OC)c3)o2)cc1	-29%	-4%	6.5µM*	5.8µM*	11%
O=C(Nc1nnc(-c2ccc(Cl)cc2)o1)c1cccc(N2C(=O)CCC2=O)c1	-13%	-6%	-15%	-19%	8%
COC(=O)c1sccc1NC(=O)c1cc2c(s1)CCCC2	-3%	1%	10µM*	-19%	-11%
COc1cccc(C(=O)Nc2nnc(-c3ccc(Cl)cc3)o2)c1	4%	u	10µM*	10µM*	x
CCCCNC(=O)Nc1nnc(-c2ccc(OCC)cc2)o1	-10%	0%	u	u	5%
COc1cccc(-c2nnc(NC(=O)c3ccc4ncsc4c3)o2)c1	-14%	-3%	15µM*	16µM*	7%
O=C(O)C1=C[C@H](c2ccc(Br)cc2)C[C@H](OCCCCO)O1	-1%	-1%	1%	15%	1%
CCc1cc(=O)oc2c(C)c(OS(C)(=O)=O)ccc12	x	0%	-26%	-10%	x
O=C(Cc1cccc2ccccc12)N/N=C/C=C/c1cccc([N+](=O)[O-])c1	-3%	7%	u	u	3%
O=C(Cc1ccc(F)cc1)Nc1nnc(-c2ccc(F)cc2)o1	3%	-18%	u	23µM*	0%
Cc1ccnc2nc(C(=O)Nc3nnc(-c4ccc(Cl)cc4)o3)nn12	0%	0%	1%	16%	x

Just TDP1 block, for some of the entries so far:
SMILES | TDP1 block
CCn1c(NCc2cc(Br)ccc2NS(=O)(=O)c2ccc(C)cc2)nc2ccccc21 | 8%
C=CCOc1ccc(C2OC34CCCCC3C(C#N)(C#N)C2(C#N)C(=N)O4)cc1 (stereo not given) | 0%

Part of the list above, with two lines to a compound.
Screens in order – miR-21 FLuc	uPA surface inh	DT40 TDP1 no CPT	DT40 TDP1 CPT	TDP1 block
O=C(Cc1ccc(F)cc1)Nc1nnc(-c2ccc(F)cc2)o1
 : 3%	-18%	u	23µM*	0%
COc1cccc(-c2nnc(NC(=O)c3ccc4ncsc4c3)o2)c1
 : -14%	-3%	15µM*	16µM*	7%
